{"source": "PubChem BioAssay AID602270", "about": "(The Scripps Research Institute Molecular Screening Center, 2012)", "system": "Methionine sulfoxide reductase A (Bos taurus)", "assay": "bovine MsrA activators, retest, confirmation, biochemical, absorbance, HTS (AID 602270);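 note: enzyme coupled to thioredoxin and thioredoxin reductase with NADPH; 0% = vehicle wells and 100% = reference activator wells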", "settings": "purified bovine MsrA, absorbance read-out; at 10.6 µM; hits give high values", "note": "The list shows a part of the results, in another mix than the full data. Active and inactive are the calls of the source. Cut-off read from the data, not from the text of the source: active = activation above about 4%; inactive = the rest."}
{"compound": "O=[N+]([O-])c1cc([N+](=O)[O-])c(-c2cnn(-c3ccccc3)c2)c([N+](=O)[O-])c1", "values": [{"measurement": "activation", "value": "inactive: 2.85%"}]}
